Among the data in US6537522B1, “Neuroprobes for mapping monoamine reuptake sites” (Amersham PLC, priority 1992, dated 2003) are Kd values, retold here.

By UniProt entry, the sequences of proteins in these tests, tags left out.
UniProt P23977, whole entry: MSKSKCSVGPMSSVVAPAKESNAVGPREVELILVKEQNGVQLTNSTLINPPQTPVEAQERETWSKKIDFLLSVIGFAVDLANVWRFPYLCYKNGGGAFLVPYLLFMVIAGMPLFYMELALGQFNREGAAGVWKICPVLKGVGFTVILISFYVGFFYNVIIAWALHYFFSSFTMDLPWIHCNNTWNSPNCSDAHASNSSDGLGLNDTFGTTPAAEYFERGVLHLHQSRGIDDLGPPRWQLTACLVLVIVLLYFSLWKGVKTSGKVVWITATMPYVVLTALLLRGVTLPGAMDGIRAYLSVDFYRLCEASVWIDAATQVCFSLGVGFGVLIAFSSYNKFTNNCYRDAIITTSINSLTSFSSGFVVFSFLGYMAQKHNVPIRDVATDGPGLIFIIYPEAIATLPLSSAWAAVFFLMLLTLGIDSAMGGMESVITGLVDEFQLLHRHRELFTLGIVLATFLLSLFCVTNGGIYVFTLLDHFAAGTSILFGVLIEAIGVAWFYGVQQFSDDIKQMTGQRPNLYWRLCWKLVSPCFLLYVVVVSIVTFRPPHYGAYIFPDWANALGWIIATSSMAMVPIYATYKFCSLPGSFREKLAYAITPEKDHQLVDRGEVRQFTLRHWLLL

This experiment has as its target T1, DAT (dopamine transporter) (Rattus norvegicus, UniProt P23977).
T1 construct: a crude membrane fraction of homogenates of rat brain corpus striatum (for DAT assays); from tissue; host or cells: rat brain corpus striatum, crude membrane fraction
The experiment in a line: DAT assay, [3H]GBR-12935 binding, rat brain corpus striatum membranes. The settings on record: radioligand, 13 Ci/mmol. As for the experimental part:
N-phthalimidopropyl-β-CIT (see Example 10) was analyzed as follows. Stock solutions (1 mM) of test agents were made in 95% ethanol/DMSO (1/1, v/v) and stored at −5° C. until used by diluting in a large excess of each assay buffer. Agents are tested at six concentrations in duplicate, with a crude membrane fraction of homogenates of rat brain corpus striatum (for DAT assays) in Tris-citrate buffer (pH 7.4) containing Na^+ ([…]) and Mg^2+ (4 mM) or frontoparietal cerebral cortex (for 5-HTT and NET) in 50 mM Tris-HCl buffer (pH 7.4) containing Na^+ ([…]) and K^+ (5 mM) following methods reported by Neumeyer et al., J. Med. Chem. 37, 1558-1561 (1991), the whole of which is incorporated by reference herein.

By Kd is commonly meant the equilibrium constant for the complex coming apart. `c1ccc(CCCN2CCN(CCOC(c3ccccc3)c3ccccc3)CC2)cc1` [[^3H]GBR-12935, reference compound] showed a Kd of 1 nM.
